Reference: US20170000889A1, “STABLE BROMFENAC OPHTHALMIC SOLUTION” (SENTISS PHARMA PRIVATE LIMITED, priority 2013, published 2017)

Experiment: Haziness of citrate-buffered bromfenac formulation on addition of BKC, effect of surfactants
Assay type: physicochemical
Conditions: surfactant added to citrate-buffered bromfenac solution with benzalkonium chloride
Experimental: In yet other embodiment of the present invention, citrate buffer is used instead of borate buffer but when benzalkonium chloride (BKC) was added in the citrate formulation it causes haziness of the formulation.
The inventors of the present invention extensively studied how to overcome the haziness occurred during the addition of BKC.

Haziness after addition of BKC to the citrate formulation: removed haziness
Substance: Vitamin E Polyethylene Glycol Succinate [Kolliphor® TPGS]
